Consider one substance from patent US20040058357A1, “System and method for assaying drugs” (priority 2003, published 2004).

The experiment relates to hippocampal slices. The following applies: previously stressed mice; APV 50 μM, DNQX 20 μM.

dinitroquinoxalinedione: the “Effect on the evoked pfp” value is “blocked”.
